The source of these data is US9102688B2, “Sulfonaminoquinoline hepcidin antagonists” (Vifor (International) AG, priority 2011, dated 2015).

Chains of the proteins cited; added tags and fusions are not shown.
UniProt Q9NP59, whole entry: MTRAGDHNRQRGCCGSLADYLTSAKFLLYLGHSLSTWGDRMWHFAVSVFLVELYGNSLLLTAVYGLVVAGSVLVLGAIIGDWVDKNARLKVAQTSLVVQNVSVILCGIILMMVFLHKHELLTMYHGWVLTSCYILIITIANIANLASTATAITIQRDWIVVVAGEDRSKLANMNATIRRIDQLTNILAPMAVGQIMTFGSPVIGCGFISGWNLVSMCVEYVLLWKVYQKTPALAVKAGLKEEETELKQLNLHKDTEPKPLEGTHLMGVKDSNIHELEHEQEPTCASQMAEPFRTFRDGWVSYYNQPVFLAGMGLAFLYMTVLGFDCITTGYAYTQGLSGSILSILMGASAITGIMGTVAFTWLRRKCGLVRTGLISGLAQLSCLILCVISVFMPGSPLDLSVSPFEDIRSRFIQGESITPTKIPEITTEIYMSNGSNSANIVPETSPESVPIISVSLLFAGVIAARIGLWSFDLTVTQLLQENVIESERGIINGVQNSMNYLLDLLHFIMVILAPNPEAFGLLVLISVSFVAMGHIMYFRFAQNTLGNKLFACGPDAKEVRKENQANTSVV

The experiment concerns the target human ferroportin (Homo sapiens, UniProt Q9NP59). Briefly: ferroportin internalization assay (inhibition of hepcidin-induced internalization of Fpn). Conditions: read-out: Ferroportin/ IC50 μM; MDCK-FPN-HaloTag cells, 100 nM hepcidin, overnight incubation; concentration range from 0.04 to 40 μM. The method, then: The hepcidin-antagonistic action of the sulfonaminoquinoline compounds of the present invention was determined by means of the “ferroportin internalization assay” described in the following.
Organic compounds of low molecular weight which counteract the biological actions of hepcidin on its receptor, the iron exporter ferroportin (Fpn), were identified on the basis of their ability to inhibit hepcidin-induced internalization of Fpn in living cells. For this purpose, a stable cell line (Madin-Darby canine kidney, MDCK) was produced which constitutively expresses human ferroportin fused recombinantly at its C terminus with a fluorescent reporter protein (HaloTag®, Promega Corp.). The internalization of Fpn was monitored by labelling these cells with fluorescent ligands (HaloTag®-TMR, tetramethylrhodamine) which join covalently on to the HaloTag reporter gene fused with the Fpn. […] Optimized image analysis algorithms were used to ascertain the cell surface and to quantify the corresponding membrane fluorescence associated with the Fpn-HaloTag fusion protein. This assay allows a quantitative image-based analysis in order to quickly evaluate compounds which can block hepcidin-induced internalization of Fpn. […]

For `O=S(=O)(Nc1cccc2ccccc12)c1ccc(Br)s1`, the IC50 was found to be 6.8 µM.
